Experimental findings from ChEMBL document CHEMBL4477213, “Discovery and Optimization of Quinazolinone-pyrrolopyrrolones as Potent and Orally Bioavailable Pan-Pim Kinase Inhibitors” (J Med Chem, 2016) are described below.

Protein sequences, listed by entry. Tags and fused reporters are not part of them. Lines headed by an entry give the natural chain unless they say otherwise; changes in a name come on top.
UniProt P11309, whole entry: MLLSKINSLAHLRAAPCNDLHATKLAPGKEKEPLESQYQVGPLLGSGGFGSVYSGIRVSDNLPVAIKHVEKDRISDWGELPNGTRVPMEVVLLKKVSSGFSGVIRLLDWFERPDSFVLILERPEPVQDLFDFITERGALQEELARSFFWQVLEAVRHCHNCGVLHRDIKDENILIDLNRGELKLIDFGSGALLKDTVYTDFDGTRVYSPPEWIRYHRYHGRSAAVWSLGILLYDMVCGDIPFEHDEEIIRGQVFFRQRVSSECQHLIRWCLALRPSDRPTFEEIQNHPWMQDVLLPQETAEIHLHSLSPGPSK
UniProt Q9P1W9: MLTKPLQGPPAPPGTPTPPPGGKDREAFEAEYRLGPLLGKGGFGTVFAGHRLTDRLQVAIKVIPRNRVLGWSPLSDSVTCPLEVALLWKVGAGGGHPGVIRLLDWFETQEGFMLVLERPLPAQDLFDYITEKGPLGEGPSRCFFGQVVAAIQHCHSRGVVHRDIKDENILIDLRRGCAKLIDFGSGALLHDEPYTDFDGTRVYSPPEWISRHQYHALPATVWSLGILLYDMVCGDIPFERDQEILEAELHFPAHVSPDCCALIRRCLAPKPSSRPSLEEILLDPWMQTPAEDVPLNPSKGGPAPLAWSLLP

Assay [1] has as its target Serine/threonine-protein kinase PIM (Homo sapiens, UniProt P11309+Q9P1W9+Q86V86). The conditions noted are these: kms-12-bm.
Assay [2] addresses Serine/threonine-protein kinase pim-2 (Homo sapiens, UniProt Q9P1W9). Description: Inhibition of full length recombinant Pim-2 (unknown origin) assessed as reduction in phosphorylation of biotinylated-BAD peptide at Serine 112 residue preincubated for 30 mins followed by substrate addition for 1 hr by HTRF assay.
In assay [3] the target is Serine/threonine-protein kinase pim-1 (Homo sapiens, UniProt P11309).

Structures are written as SMILES.

By IC50 is commonly meant the midpoint of a concentration-inhibition curve. On to `Cc1nc2cccc(-c3[nH]c4c(c3Cl)C(=O)N[C@@H]4C)c2nc1NC(C)(C)C`, for which the values for the IC50 in assay [1], in assay [2] and in assay [3] were 407 nM, 1 nM and 0.5 nM, respectively.
On the same counts, the results for `Cc1nc2cccc(-c3cc4c([nH]3)[C@H](C)NC4=O)c2nc1NC(C)(C)C` are 65 nM, 1.8 nM and 1.6 nM.
On to `Cc1nc2cccc(-c3cc4c([nH]3)[C@@H](C)NC4=O)c2nc1NC(C)(C)C`, for which the IC50 in assay [2] is 1 nM.
For the compound `C[C@H]1NC(=O)c2cc(-c3c(F)ccc4c(=O)n(C)c(NC(C)(C)C)nc34)[nH]c21`, the 50% inhibitory concentration (IC50) in assay [1] stood at 26 nM; in assay [2], 0.1 nM; in assay [3] it was 0.1 nM.
